Test system: 3D human liver microtissues (hLiMT)
Experiment: Cytotoxicity (cellular ATP, CellTiter-Glo 2.0) in 3D human liver microtissues, 14 day repeat-dose treatment
Details: Hepatocyte, 336 h, read-out: Geomean IC50 [µM]

Structure (SMILES): CN(CCOc1ccc(CC2SC(=O)NC2=O)cc1)c1ccccn1 (stereo not shown) [Rosiglitazone]
- IC50: 37.7 µM

— paper PMC5515971, “Utility of spherical human liver microtissues for prediction of clinical drug-induced liver injury” (Archives of Toxicology, 2017)
